Among the data in ChEMBL document CHEMBL1134500, “Investigations of new lead structures for the design of selective estrogen receptor modulators” (J Med Chem, 2001) are RBA values, retold here.

Chains of the proteins cited; added tags and fusions are not shown.
UniProt Q9XSB5, whole entry, looked up: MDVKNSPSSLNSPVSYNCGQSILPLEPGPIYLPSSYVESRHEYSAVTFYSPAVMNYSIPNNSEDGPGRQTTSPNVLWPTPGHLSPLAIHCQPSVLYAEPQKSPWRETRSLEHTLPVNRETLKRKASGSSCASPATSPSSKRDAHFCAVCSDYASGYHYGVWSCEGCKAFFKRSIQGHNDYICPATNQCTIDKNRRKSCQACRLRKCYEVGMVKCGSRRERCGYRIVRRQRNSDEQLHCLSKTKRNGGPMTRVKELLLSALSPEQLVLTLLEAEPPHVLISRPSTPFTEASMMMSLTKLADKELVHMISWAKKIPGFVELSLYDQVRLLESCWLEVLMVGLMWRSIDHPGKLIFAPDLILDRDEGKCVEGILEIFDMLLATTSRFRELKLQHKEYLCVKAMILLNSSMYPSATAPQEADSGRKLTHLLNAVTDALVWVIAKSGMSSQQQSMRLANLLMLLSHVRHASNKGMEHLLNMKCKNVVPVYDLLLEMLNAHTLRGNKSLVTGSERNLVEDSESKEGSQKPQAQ
UniProt P49884, whole entry, looked up: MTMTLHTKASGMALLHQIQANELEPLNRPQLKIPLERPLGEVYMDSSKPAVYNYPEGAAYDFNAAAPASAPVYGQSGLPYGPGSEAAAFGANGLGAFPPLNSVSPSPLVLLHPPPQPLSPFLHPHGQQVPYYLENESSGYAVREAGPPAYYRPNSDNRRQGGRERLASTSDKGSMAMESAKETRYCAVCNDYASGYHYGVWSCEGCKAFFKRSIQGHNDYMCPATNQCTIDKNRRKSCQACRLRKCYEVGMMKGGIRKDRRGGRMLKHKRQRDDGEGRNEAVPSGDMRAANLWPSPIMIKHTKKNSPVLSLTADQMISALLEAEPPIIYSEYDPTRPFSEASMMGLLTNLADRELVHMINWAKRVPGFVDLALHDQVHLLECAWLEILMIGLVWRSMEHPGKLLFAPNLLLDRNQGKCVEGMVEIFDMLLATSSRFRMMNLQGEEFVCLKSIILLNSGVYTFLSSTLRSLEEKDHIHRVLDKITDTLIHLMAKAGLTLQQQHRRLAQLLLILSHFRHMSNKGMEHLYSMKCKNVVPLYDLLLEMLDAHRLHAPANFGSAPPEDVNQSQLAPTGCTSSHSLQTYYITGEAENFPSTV

This experiment deals with Estrogen receptor (Bos taurus) (UniProt Q9XSB5+P49884). The experiment is described as follows: Displacement of 17-beta-[3H]-estradiol from estrogen receptor relative to 17-beta-estradiol. In kind it is protein assay. A digest of the protocol:
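Competitive binding with calf uterine cytosol as receptor source and 17β-[3H]estradiol (0.723 pmol per tube) as tracer. Compounds were dissolved in ethanol, diluted in TRIS buffer to six to eight concentrations and incubated overnight at 4 °C. Free ligand was removed with dextran-charcoal (90 min, 4 °C), then supernatant was scintillation counted. Nonspecific binding was set with 2 nmol estradiol. RBA = ratio of 50%-inhibiting concentrations (estradiol/sample) × 100%.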

`Oc1ccc([C@H]2N=CN[C@H]2c2c(Cl)cc(O)cc2Cl)c(Cl)c1` came in with an RBA of 0.08%.
